# Values joined by “and” are separate entries in the source; they are usually repeats but may differ in a detail not shown here. Identical values can stand only once. Only a part is listed here, and it is no random draw. Results filed as inconclusive are left out. A structure can be active in one record and inactive in another. Active and inactive are the calls of the source. Rule for the calls: active = hit-call score of the fitted dose curve at least 0.9, where 1 is the maximum; inconclusive = response in the unintended direction; inactive = score below 0.9.
# Chains of the proteins cited; added tags and fusions are not shown. Lines headed by an entry give the natural chain unless they say otherwise; changes in a name come on top.
# UniProt P03372, whole entry, looked up: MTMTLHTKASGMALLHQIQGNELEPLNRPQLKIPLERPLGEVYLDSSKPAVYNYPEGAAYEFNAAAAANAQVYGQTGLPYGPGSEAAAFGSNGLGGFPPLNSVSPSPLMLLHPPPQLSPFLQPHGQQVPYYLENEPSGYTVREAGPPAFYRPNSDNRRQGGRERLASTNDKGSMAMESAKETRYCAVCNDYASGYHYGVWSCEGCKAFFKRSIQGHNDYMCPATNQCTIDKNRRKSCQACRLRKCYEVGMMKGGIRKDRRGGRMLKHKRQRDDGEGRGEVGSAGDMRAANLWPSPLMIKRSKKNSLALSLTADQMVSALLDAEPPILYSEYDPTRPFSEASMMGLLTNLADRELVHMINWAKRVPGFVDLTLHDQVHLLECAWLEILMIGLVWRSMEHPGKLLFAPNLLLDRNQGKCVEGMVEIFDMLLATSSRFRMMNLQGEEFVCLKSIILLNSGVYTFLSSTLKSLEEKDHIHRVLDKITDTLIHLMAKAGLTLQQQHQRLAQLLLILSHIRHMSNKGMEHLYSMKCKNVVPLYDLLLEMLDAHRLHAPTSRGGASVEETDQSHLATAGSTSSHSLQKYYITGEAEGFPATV
# UniProt P10275: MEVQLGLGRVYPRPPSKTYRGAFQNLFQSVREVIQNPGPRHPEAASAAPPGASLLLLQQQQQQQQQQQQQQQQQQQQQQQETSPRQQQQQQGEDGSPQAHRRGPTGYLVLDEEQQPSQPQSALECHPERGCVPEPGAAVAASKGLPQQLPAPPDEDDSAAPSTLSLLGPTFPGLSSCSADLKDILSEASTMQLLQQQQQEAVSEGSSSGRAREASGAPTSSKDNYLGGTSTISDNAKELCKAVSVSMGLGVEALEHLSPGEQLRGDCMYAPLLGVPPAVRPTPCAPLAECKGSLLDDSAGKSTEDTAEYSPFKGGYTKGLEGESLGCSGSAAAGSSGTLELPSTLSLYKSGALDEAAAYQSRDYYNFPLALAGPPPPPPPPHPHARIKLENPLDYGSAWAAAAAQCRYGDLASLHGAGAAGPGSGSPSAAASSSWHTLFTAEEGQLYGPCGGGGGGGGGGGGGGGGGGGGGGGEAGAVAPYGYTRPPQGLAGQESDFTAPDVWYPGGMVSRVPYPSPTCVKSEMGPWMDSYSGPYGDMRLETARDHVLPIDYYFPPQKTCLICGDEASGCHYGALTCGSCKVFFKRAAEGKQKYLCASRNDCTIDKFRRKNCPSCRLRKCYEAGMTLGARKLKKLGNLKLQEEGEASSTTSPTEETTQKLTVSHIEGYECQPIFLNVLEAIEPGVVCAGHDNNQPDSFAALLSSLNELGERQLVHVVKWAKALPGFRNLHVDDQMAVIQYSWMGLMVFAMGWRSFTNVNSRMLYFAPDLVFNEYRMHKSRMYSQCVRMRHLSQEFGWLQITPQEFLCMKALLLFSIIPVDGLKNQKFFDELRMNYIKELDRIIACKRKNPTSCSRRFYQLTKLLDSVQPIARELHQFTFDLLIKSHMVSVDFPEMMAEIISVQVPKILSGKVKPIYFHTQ
# UniProt Q96RI1: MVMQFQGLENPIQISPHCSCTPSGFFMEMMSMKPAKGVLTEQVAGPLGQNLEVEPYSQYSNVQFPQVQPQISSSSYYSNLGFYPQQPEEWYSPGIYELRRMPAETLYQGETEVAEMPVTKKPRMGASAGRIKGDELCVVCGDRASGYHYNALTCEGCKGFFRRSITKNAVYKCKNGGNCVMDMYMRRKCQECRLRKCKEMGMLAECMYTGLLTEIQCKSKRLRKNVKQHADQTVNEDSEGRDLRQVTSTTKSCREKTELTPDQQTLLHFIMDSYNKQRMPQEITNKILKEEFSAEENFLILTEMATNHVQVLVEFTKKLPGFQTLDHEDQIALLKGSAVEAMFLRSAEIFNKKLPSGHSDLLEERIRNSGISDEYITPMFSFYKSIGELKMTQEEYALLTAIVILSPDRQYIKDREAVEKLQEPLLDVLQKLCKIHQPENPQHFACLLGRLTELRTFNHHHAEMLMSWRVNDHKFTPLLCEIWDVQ
# UniProt Q92731, whole entry, looked up: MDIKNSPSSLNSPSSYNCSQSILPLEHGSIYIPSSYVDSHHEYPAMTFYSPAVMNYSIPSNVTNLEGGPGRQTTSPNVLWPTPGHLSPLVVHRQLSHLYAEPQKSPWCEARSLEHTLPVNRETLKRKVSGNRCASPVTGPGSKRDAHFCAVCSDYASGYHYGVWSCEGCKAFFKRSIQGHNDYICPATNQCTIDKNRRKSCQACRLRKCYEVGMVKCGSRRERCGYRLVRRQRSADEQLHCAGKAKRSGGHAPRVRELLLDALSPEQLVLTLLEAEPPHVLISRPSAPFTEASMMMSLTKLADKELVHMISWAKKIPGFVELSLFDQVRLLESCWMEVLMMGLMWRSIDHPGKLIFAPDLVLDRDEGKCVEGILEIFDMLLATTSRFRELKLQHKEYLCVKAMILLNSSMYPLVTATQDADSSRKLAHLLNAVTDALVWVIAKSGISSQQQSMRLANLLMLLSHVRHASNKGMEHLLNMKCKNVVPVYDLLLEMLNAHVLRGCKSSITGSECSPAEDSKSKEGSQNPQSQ
# UniProt P04150: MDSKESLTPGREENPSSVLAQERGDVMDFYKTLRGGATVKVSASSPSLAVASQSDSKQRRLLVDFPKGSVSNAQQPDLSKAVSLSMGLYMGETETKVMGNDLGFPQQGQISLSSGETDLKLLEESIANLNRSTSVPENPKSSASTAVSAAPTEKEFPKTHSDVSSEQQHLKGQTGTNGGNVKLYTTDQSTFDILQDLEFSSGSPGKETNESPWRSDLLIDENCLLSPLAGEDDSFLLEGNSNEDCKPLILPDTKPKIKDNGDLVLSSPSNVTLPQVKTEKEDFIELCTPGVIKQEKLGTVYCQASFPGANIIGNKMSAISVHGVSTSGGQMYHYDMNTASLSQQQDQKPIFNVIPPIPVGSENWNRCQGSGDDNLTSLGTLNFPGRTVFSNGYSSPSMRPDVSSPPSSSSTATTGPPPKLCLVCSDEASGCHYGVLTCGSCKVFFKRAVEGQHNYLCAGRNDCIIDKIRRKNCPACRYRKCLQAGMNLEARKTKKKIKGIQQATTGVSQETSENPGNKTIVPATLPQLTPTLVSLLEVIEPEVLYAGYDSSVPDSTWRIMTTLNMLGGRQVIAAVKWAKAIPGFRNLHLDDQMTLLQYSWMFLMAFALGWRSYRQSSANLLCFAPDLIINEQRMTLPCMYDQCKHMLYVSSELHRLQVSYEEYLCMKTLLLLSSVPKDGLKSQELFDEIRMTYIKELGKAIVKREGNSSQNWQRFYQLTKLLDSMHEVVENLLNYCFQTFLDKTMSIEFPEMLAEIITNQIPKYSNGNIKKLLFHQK
# UniProt P06401: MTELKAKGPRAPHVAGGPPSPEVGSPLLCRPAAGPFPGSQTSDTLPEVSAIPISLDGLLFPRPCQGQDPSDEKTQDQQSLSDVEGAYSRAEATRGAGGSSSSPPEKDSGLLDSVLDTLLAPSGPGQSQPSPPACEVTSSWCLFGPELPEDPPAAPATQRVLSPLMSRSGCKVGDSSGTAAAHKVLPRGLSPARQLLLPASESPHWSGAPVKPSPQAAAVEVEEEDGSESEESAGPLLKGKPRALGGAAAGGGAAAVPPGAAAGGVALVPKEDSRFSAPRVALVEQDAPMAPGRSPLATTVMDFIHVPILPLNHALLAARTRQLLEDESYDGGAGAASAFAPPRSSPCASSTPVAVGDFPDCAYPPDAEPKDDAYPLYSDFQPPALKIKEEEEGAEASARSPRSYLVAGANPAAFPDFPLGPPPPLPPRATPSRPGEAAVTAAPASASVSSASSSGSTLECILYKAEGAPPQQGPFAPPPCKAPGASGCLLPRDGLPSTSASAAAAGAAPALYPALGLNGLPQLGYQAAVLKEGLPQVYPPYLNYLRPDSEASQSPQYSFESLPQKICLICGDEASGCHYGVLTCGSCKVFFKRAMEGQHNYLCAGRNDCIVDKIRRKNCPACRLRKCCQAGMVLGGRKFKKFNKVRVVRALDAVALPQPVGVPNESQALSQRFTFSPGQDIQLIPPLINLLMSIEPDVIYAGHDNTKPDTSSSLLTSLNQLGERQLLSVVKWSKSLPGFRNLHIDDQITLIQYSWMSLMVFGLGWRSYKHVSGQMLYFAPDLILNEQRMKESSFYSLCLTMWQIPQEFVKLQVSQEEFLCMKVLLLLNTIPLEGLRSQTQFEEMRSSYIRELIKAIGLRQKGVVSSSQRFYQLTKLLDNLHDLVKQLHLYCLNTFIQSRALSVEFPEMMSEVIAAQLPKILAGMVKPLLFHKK
# UniProt P10827: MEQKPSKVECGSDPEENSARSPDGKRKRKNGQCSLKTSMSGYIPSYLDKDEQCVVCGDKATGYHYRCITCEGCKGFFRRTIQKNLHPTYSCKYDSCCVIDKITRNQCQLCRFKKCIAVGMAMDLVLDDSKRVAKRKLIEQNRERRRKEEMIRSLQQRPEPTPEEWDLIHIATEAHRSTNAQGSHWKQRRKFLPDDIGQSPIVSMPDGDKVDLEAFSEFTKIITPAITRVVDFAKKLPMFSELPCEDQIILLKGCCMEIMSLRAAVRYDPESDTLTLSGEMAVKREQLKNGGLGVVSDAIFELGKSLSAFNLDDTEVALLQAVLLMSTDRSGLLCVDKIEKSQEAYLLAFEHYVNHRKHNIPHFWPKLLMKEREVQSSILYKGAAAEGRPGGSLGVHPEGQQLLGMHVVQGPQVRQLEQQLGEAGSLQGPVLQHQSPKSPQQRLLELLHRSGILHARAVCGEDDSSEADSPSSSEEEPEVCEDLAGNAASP
# Experiments:
# [1] = target: Estrogen receptor (Homo sapiens) (UniProt P03372); assay: OT_ER_ERaERa_0480: Odyssey Thera (OT) 8-hour HEK293T Protein-Complementation Assay for Estrogen Receptor-alpha/-alpha Homodimer (AID 2283351);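 note: rise in fluorescence from reassembled reporter fragments on ERα LBD homodimer in nucleus or whole cell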
# Experimental: OT_ER_ERaERa_0480 is a cell-based assay that uses HEK293T, a human kidney cell line, with measurements taken at 8 hours after chemical dosing in a 384-well plate.OT_ER_ERaERa_0480 is one of one assay component(s) measured or calculated from the OT_ER_ERaERa_0480 assay. It is designed to make measurements of protein fragment complementation, a form of binding reporter, as detected with fluorescence intensity signals by Protein-fragment Complementation technology.Data from the assay component OT_ER_ERaERa_0480 was analyzed into 1 assay endpoint. This assay endpoint, OT_ER_ERaERa_0480, was analyzed in the positive analysis fitting direction relative to DMSO as the negative control and baseline of activity. Using a type of binding reporter, measures of receptor for gain-of-signal activity can be used to understand the binding at the pathway-level as they relate to the gene ESR1. Furthermore, this assay endpoint can be referred to as a primary readout, because the performed assay has only produced 1 assay endpoint. To generalize the intended target to other relatable targets, this assay endpoint is annotated to the nuclear receptor intended target family, where the subfamily is steroidal.
# Protein-fragment complementation assay, or PCA, is a method for the identification and quantification of protein-protein interactions. In the PCA, the proteins of interest ("bait" and "prey") are each covalently linked to fragments of a third protein (e.g. DHFR, which acts as a "reporter"). Interaction between the bait and the prey proteins brings the fragments of the reporter protein in close proximity to allow them to form a functional reporter protein whose activity can be measured. The OT ER alpha / ER alpha assay is a homodimer PCA of the ligand binding domain (amino acids 310-547) of human ER alpha stably expressed in HEK293T cells. […] Fluorescent signal in the basal state of the assay is very low and is primarily punctuate and cytoplasmic. Modulation of this assay is quantified as an increase in mean fluorescence intensity in the nucleus (for agonists) or in the nucleus and cytoplasm (antagonists) relative to vehicle controls, and can be quantified on a high content imaging device or a laser scanning cytometer. The latter instrument is favored for this assay because of the rapid mode of data acquisition, the ability to acquire data from the entire cell population in a well (as opposed to a fraction of the well on the high content devices) and the larger dynamic range typically achieved with this instrument. To assess sensitivity of the ER alpha/ER alpha LBD assay to ligand, cells were treated with the ER agonist 17 beta-estradiol (E2) in 10-point concentration- response format for 8 hours and monitored response on a laser scanning plate cytometer (Acumen eX3; TTP Lab Tech).
# [2] = target: Androgen Receptor/SRC-1 Co-activator, AR (gene 367) (UniProt P10275); assay: OT_AR_ARSRC1_0960: Odyssey Thera (OT) 16-hour HEK293T Protein-Complementation Assay for Androgen Receptor/SRC-1 Co-activator (AID 2283353);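 note: actives raise the signal above DMSO so potency reflects increased AR and SRC-1 complex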
# Method in brief: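 HEK293T cells stably expressing AR and SRC-1 fused to Venus YFP fragments, imaged 16 h after dosing. Nuclear/cytoplasmic fluorescence ratio at 488 nm from at least 400 cells per image; gain of signal relative to DMSO.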
# [3] = target: Androgen Receptor/SRC-1 Co-activator, AR (gene 367) (UniProt P10275); assay: OT_AR_ARSRC1_0480: Odyssey Thera (OT) 8-hour HEK293T Protein-Complementation Assay for Androgen Receptor/SRC-1 Co-activator (AID 2283354);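 note: hits raise the complementation signal above DMSO so AC50 marks enhancers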
# Method in brief: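 HEK293T cells stably expressing AR and SRC-1 fused to split Venus YFP fragments via (Gly4Ser)2 linkers were read 8 h after compound dosing. Complementation was imaged at 488 and 635nm, and nuclear/cytoplasmic fluorescence ratio (488nm) was taken over ≥400 cells; gain-of-signal versus DMSO.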
# [4] = target: Bile acid receptor (Homo sapiens) (UniProt Q96RI1); assay: NVS_NR_hFXR_Antagonist: NovaScreen (NVS) Nuclear Receptor Binding Assay for human Farnesoid X Receptor Antagonism (FXR) (AID 2283350)
# Method in brief: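 Cell-free TR-FRET ligand-binding read-out on human FXR (NR1H4) in antagonist mode, measured 1 h after dosing. Primary screen in duplicate at 25 uM, actives retested in concentration series; signal loss scored versus DMSO.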
# [5] = target: T1, Estrogen receptor (Homo sapiens) + Estrogen receptor beta (Homo sapiens) (UniProt P03372+Q92731); assay: OT_ER_ERaERb_0480: Odyssey Thera (OT) 8-hour HEK293T Protein-Complementation Assay for Estrogen Receptor-alpha/-beta Heterodimer (AID 2283352)
# Method in brief: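 Human HEK293T cells were treated for 8 hours and receptor heterodimerisation was detected through reconstitution of a fluorescent reporter split between ER-alpha and ER-beta ligand-binding domains. Activity was analysed as gain of signal against DMSO.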
# [6] = target: T1, Estrogen receptor (Homo sapiens) + Estrogen receptor beta (Homo sapiens); assay: OT_ER_ERaERb_1440: Odyssey Thera (OT) 24-hour HEK293T Protein-Complementation Assay for Estrogen Receptor-alpha/-beta Homodimer (AID 2283356);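 note: heteromer of ER alpha and ER beta binding domains; hits raise reporter fluorescence and both agonists and antagonists give an increase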
# Method in brief: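 24 h exposure; HEK293T PCA cells with ERα/ERβ LBD fragments; signal rise in nuclear or whole-cell fluorescence over vehicle.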
# [7] = target: Estrogen receptor beta (Homo sapiens) (UniProt Q92731); assay: OT_ER_ERbERb_0480: Odyssey Thera (OT) 8-hour HEK293T Protein-Complementation Assay for Estrogen Receptor-beta/-beta Homodimer (AID 2283357);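 note: active means signal gain over DMSO baseline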
# Method in brief: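 Readout: increase in mean fluorescence intensity (nucleus for agonists; nucleus plus cytoplasm for antagonists) relative to DMSO, from a reporter-fragment complementation of human ER-beta LBD homodimer in HEK293T cells dosed 8 hours.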
# [8] = target: Glucocorticoid receptor (Homo sapiens) (UniProt P04150); assay: NVS_NR_hGR: NovaScreen (NVS) Nuclear Receptor Binding Assay for human Glucocorticoid Receptor (GR) (AID 2283363);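 for AC50: activity is loss of specific radioligand binding signal relative to DMSO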
# Method in brief: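 Cell-free radioligand binding with extracted receptor protein, read by filter-based scintillation counting 16 hours after dosing. Loss of specific signal versus DMSO baseline was scored. Primary screen ran in duplicate at 25 uM; actives were followed up in concentration series.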
# [9] = target: PGR (gene 5241) (UniProt P06401); assay: NVS_NR_hPR: NovaScreen (NVS) Nuclear Receptor Binding Assay for human Progestron Receptor (PR) (AID 2283360);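 note: active means loss of bound radioligand signal versus DMSO baseline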
# Method in brief: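 Cell-free radioligand binding using receptor protein extracted from T47D cells, read by scintillation counting 18 hours after dosing. Loss of signal relative to DMSO baseline indicates displacement; primary screen single concentration 25 uM in duplicate, actives followed in concentration series.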
# [10] = target: human Thyroid Receptor Alpha (TRa), THRA (gene 7067) (UniProt P10827); assay: NVS_NR_hTRa_Antagonist: NovaScreen (NVS) Nuclear Receptor Binding Assay for human Thyroid Receptor Alpha Antagonism (TRa) (AID 2283362)
# Method in brief: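 In this biochemical format, receptor protein is dosed with chemical and read after 1 hour via AlphaLISA. Decreases from the DMSO baseline indicate antagonist activity; screening used 25 uM in duplicate before concentration-response confirmation.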
structure (smiles),measurement,setting,value
O=[P+](Oc1ccccc1)Oc1ccccc1,outcome,[1],inactive
same,outcome,[2],inactive
same,outcome,[3],inactive
O=C1C2CC=CCC2C(=O)N1SC(Cl)(Cl)C(Cl)Cl (stereo not drawn),outcome,[4],inactive
same,AC50,[2],active: 9.1 µM
CC(C)CCCCCCCOP(OCCCCCCCC(C)C)Oc1ccccc1,outcome,[1],inactive
same,outcome,[5],inactive
same,outcome,[6],inactive
same,outcome,[7],inactive
ClP(Cl)c1ccccc1,AC50,[1],active: 4.94 µM
same,outcome,[6],inactive
same,outcome,[7],inactive
CN(C(=O)Cc1cccc2occc12)[C@H]1CC[C@@]2(CCCO2)C[C@@H]1N1CCCC1,outcome,[1],inactive
same,outcome,[5],inactive
same,outcome,[6],inactive
same,outcome,[7],inactive
same,outcome,[8],inactive
CC(C)OP(=S)(OC(C)C)SCCNS(=O)(=O)c1ccccc1,AC50,[9],active: 2.61 µM
same,outcome,[9],inactive
same,outcome,[10],inactive
same,AC50,[8],active: 1.79 µM and active: 2.33 µM and active: 2.63 µM
Cc1cc([N+](=O)[O-])cc([N+](=O)[O-])c1O,AC50,[2],active: 73.6 µM
same,outcome,[3],inactive

# — PubChem BioAssay (EPA / NIEHS)
